Assay type in all cases: cell-based
In experiment [1] the target is Epidermal growth factor receptor (Homo sapiens, UniProt P00533, L858R/T790M). Briefly: Inhibition of EGFR L858R/T790M mutant phosphorylation in human patient derived H1975 cells incubated for 3 hrs by ELISA method. (ELISA stands for enzyme-linked immunosorbent assay.)
Experiment [2] addresses Epidermal growth factor receptor (Homo sapiens, UniProt P00533). Briefly: Inhibition of wild type EGFR phosphorylation in human HaCaT cells incubated for 3 hrs by ELISA method.
Experiment [3] addresses Epidermal growth factor receptor (Homo sapiens, UniProt P00533, L858R). Kind of experiment: Inhibition of EGFR L858R mutant phosphorylation in human patient derived H3255 cells incubated for 3 hrs by ELISA method.

Protein sequences, listed by entry. Tags and fused reporters are not part of them. Residues count along the entry.
UniProt P00533, 25-1210 T790M/L858R limits assumed: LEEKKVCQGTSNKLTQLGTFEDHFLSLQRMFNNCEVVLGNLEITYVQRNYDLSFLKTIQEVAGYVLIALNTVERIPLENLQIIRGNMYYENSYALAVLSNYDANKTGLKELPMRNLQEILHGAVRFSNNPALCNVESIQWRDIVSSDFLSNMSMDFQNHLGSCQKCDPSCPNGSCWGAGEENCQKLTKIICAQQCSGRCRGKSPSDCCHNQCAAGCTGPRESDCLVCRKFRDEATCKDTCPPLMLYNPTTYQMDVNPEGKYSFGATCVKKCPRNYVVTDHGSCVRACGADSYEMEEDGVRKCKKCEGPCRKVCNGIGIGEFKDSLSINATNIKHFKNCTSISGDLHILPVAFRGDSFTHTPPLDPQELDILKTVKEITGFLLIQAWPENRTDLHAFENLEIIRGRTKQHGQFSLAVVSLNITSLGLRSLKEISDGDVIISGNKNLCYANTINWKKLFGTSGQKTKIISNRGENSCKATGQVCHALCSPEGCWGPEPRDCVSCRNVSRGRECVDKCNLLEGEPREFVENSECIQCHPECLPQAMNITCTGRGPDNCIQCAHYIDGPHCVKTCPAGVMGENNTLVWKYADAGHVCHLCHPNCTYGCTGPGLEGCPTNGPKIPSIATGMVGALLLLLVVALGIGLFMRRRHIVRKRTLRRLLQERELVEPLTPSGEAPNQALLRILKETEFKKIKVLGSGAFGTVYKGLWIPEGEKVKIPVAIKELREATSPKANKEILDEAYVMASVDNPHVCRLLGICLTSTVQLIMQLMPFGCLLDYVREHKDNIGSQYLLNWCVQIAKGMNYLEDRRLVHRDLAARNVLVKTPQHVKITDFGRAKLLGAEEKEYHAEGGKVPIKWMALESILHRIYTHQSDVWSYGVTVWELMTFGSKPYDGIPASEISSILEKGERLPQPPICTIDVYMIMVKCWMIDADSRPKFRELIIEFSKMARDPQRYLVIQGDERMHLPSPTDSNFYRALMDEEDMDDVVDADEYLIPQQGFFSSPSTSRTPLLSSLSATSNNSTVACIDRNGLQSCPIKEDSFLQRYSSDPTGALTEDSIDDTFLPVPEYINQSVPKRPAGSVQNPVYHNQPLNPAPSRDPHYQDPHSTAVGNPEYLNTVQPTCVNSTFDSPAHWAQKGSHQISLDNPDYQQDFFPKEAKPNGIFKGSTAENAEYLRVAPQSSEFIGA
UniProt P00533, whole entry: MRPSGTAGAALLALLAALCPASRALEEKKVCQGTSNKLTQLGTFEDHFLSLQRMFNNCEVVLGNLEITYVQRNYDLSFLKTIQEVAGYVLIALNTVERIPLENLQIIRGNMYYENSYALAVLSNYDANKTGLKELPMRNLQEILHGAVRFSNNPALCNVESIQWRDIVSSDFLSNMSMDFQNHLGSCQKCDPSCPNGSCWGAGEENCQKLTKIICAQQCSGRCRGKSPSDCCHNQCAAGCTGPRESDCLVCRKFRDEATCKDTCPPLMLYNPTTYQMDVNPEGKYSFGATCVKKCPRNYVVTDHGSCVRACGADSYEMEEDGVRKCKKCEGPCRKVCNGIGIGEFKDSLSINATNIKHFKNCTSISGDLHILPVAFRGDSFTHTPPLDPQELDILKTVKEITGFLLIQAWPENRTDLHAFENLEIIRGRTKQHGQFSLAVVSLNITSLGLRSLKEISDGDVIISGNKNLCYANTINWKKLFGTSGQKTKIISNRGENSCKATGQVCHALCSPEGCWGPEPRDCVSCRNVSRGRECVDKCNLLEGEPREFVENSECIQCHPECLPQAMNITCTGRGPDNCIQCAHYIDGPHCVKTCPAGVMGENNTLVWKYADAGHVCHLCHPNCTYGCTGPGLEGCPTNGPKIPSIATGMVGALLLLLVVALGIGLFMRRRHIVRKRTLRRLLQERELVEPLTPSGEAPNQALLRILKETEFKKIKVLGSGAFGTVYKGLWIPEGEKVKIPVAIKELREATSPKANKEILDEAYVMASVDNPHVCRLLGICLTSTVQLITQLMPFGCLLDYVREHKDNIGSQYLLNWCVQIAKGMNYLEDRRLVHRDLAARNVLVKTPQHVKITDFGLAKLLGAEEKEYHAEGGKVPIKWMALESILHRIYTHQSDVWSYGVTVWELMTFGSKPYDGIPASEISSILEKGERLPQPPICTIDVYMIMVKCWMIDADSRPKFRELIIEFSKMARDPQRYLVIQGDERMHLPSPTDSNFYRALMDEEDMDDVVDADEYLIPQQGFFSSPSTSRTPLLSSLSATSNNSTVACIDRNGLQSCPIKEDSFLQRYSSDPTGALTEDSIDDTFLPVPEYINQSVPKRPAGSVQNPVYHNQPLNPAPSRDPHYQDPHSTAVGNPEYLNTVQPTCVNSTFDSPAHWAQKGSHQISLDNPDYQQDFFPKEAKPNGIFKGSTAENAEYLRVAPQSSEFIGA
UniProt P00533, 25-1210 L858R limits assumed: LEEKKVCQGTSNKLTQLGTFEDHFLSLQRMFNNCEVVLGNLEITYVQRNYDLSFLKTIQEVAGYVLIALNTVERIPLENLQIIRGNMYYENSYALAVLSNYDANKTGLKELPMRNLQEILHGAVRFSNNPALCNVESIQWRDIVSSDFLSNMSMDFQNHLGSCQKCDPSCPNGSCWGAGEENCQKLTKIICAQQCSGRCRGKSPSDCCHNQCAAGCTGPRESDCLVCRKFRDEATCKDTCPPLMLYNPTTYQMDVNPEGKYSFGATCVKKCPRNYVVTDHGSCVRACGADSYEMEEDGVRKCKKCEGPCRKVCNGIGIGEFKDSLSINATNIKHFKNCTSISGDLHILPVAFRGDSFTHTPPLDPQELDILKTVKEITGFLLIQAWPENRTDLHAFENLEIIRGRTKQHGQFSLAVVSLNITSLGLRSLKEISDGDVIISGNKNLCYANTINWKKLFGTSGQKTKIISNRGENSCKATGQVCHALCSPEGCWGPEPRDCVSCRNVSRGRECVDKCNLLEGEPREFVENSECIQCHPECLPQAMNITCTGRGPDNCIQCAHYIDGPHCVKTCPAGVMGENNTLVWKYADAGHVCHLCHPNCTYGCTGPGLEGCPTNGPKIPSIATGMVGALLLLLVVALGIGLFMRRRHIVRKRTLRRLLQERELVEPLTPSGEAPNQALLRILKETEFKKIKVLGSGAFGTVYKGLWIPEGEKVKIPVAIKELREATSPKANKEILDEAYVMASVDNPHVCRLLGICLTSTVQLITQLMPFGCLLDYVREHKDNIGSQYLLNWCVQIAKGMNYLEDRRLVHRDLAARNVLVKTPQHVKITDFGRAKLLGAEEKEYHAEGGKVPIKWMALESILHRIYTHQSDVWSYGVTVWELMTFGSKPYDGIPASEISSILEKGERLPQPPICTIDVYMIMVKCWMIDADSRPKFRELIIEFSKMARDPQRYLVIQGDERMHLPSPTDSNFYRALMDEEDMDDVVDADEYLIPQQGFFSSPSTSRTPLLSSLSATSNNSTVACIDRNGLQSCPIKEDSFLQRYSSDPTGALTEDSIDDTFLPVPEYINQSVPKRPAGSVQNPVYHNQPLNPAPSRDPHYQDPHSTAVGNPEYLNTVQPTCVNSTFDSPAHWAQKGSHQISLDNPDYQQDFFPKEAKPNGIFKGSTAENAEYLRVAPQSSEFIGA

Molecules are shown by their SMILES.

What is called IC50 is the point on the concentration scale where inhibition reaches its midpoint. Lower therefore signals higher potency.

With `Cc1cc(C(=O)Nc2nc3cccc(Cl)c3n2[C@@H]2CCCCN(C(=O)/C=C/CN(C)C)C2)ccn1` [NAZARTINIB], the figures for the half-maximal inhibitory concentration (IC50) in experiment [1], in experiment [2] and in experiment [3] were 4.18 nM, 161 nM and 6.11 nM, respectively.
